Assay: Circular dichroism, helicity
Type: physicochemical
Details: CD 185-260 nm, 0.2 mg/ml protein in 10 mM phosphate pH 7.3, 150 mM NaF, 298 K; CDSSTR, reference set 3

SMILES | Helicity (%) of RLIP76 RBDs
CC[C@H](C)[C@H](NC(=O)CNC(=O)CNC(=O)[C@H](CCC(N)=O)NC(=O)[C@H](CC(C)C)NC(=O)[C@H](CC(=O)O)NC(=O)[C@H](CCCNC(=N)N)NC(=O)[C@H](C)NC(=O)[C@H](CC(C)C)NC(=O)[C@H](CO)NC(=O)[C@H](CC(N)=O)NC(=O)[C@H](C)NC(=O)[C@H](CC(C)C)NC(=O)[C@H](Cc1ccccc1)NC(=O)[C@H](CCC(=O)O)NC(=O)[C@H](CCC(N)=O)NC(=O)[C@H](CCCNC(=N)N)NC(=O)[C@H](CCCNC(=N)N)NC(=O)[C@@H](NC(=O)[C@H](CCC(=O)O)NC(=O)[C@H](CCC(=O)O)NC(=O)[C@H](CCCCN)NC(=O)[C@@H](NC(=O)CNC(=O)[C@H](C)NC(=O)[C@H](CCC(N)=O)NC(=O)[C@@H](NC(=O)[C@@H](N)CCC(=O)O)[C@@H](C)O)[C@@H](C)CC)[C@@H](C)CC)C(=O)N[C@@H](CCCCN)C(=O)N[C@@H](CC(=O)O)C(=O)N[C@@H](CC(C)C)C(=O)N[C@@H](CO)C(=O)N[C@@H](CCCCN)C(=O)N[C@@H](CCC(=O)O)C(=O)N[C@@H](CCC(=O)O)C(=O)N[C@@H](CCCNC(=N)N)C(=O)N[C@@H](CC(C)C)C(=O)N[C@@H](Cc1c[nH]c2ccccc12)C(=O)N[C@@H](CCC(=O)O)C(=O)N[C@H](C(=O)N[C@@H](CCC(N)=O)C(=O)N[C@@H](CCCNC(=N)N)C(=O)N[C@H](C(=O)N[C@@H](CC(C)C)C(=O)N[C@H](C(=O)N[C@@H](C)C(=O)N[C@@H](CC(C)C)C(=O)N[C@@H](CCCCN)C(=O)N[C@@H](CCCNC(=N)N)C(=O)N[C@@H](CCCCN)C(=O)N[C@@H](CC(C)C)C(=O)N[C@@H](CCCNC(=N)N)C(=O)N[C@@H](CCC(=O)O)C(=O)N[C@@H](C)C(=O)O)[C@@H](C)O)[C@@H](C)CC)C(C)C [L409A/H413A] | 87%
CC[C@H](C)[C@H](NC(=O)CNC(=O)CNC(=O)[C@H](CCC(N)=O)NC(=O)[C@H](CC(C)C)NC(=O)[C@H](CC(=O)O)NC(=O)[C@H](CCCNC(=N)N)NC(=O)[C@H](C)NC(=O)[C@H](CC(C)C)NC(=O)[C@H](CO)NC(=O)[C@H](CC(N)=O)NC(=O)[C@H](C)NC(=O)[C@H](CC(C)C)NC(=O)[C@H](Cc1ccccc1)NC(=O)[C@H](CCC(=O)O)NC(=O)[C@H](CCC(N)=O)NC(=O)[C@H](CCCNC(=N)N)NC(=O)[C@H](CCCNC(=N)N)NC(=O)[C@@H](NC(=O)[C@H](CCC(=O)O)NC(=O)[C@H](CCC(=O)O)NC(=O)[C@H](CCCCN)NC(=O)[C@@H](NC(=O)CNC(=O)[C@H](C)NC(=O)[C@H](CCC(N)=O)NC(=O)[C@@H](NC(=O)[C@@H](N)CCC(=O)O)[C@@H](C)O)[C@@H](C)CC)[C@@H](C)CC)C(=O)N[C@@H](CCCCN)C(=O)N[C@@H](CC(=O)O)C(=O)N[C@@H](CC(C)C)C(=O)N[C@@H](CO)C(=O)N[C@@H](CCCCN)C(=O)N[C@@H](CCC(=O)O)C(=O)N[C@@H](Cc1c[nH]cn1)C(=O)N[C@@H](CCCNC(=N)N)C(=O)N[C@@H](CC(C)C)C(=O)N[C@@H](Cc1c[nH]c2ccccc12)C(=O)N[C@@H](CCC(=O)O)C(=O)N[C@H](C(=O)N[C@@H](CC(C)C)C(=O)N[C@@H](CCCNC(=N)N)C(=O)N[C@H](C(=O)N[C@@H](CC(C)C)C(=O)N[C@H](C(=O)N[C@@H](C)C(=O)N[C@@H](CC(C)C)C(=O)N[C@@H](CCCNC(=N)N)C(=O)N[C@@H](CCCNC(=N)N)C(=O)N[C@@H](CCCCN)C(=O)N[C@@H](CC(C)C)C(=O)N[C@@H](CCCNC(=N)N)C(=O)N[C@@H](CCC(=O)O)C(=O)N[C@@H](C)C(=O)O)[C@@H](C)O)[C@@H](C)CC)C(C)C [HLR L409A/H413A] | 88%
